For this test, the target named is Translocator protein (Homo sapiens, UniProt P30536). Nature of the test: Binding affinity to human PBR.

By UniProt entry, the sequences of proteins in these tests, tags left out.
UniProt P30536, whole entry: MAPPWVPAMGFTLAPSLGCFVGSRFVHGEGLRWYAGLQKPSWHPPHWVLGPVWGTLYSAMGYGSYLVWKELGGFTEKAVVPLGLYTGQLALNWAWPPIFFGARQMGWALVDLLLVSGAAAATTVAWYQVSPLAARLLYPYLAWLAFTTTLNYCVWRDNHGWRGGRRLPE

The structures appear in SMILES notation.

In the case of `CCC(C)N(C)C(=O)c1cc2ccccc2c(-c2ccccc2Cl)n1` (stereo unspecified) [PK-11195], binding was characterised by a dissociation constant (Kd) of 2 nM.
